pIC50: −log10 of the molar value.
Target: recombinant homomeric hASIC1a channels (Homo sapiens, UniProt P78348)
Assay: Two-electrode voltage clamp in Xenopus laevis oocytes expressing gated ion channels (Example 4)
Assay type: cell-based
Conditions: Table 2; generated using oocytes as in Example 4

Chains of the proteins cited; added tags and fusions are not shown. Lines headed by an entry give the natural chain unless they say otherwise; changes in a name come on top.
UniProt P78348: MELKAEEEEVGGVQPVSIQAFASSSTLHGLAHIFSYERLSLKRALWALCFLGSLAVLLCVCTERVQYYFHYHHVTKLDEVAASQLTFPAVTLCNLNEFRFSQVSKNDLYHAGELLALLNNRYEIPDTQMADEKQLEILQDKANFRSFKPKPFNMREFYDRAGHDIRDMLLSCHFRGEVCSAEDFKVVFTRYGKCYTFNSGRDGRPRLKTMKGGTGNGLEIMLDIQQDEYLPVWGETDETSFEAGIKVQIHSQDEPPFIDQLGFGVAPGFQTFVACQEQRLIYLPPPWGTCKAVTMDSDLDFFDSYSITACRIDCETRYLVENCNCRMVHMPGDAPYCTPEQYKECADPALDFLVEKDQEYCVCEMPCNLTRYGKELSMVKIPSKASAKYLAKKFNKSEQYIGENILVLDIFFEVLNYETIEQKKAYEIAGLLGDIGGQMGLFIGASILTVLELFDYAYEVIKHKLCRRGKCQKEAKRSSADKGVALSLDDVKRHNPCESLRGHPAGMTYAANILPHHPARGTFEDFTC

Work on `c1ccc(CN2CCC(Oc3c4c(nc5ccccc35)CCCC4)CC2)cc1` yielded a pIC50 of under 4.52.
